# Assay results as given in PMC6778148.
# The chains behind the UniProt entries cited, without tags or fusion partners. Where a name states a change or a piece, a line headed by the entry shows the natural chain unless it says otherwise. Residues count along the entry.
# UniProt Q71RJ2: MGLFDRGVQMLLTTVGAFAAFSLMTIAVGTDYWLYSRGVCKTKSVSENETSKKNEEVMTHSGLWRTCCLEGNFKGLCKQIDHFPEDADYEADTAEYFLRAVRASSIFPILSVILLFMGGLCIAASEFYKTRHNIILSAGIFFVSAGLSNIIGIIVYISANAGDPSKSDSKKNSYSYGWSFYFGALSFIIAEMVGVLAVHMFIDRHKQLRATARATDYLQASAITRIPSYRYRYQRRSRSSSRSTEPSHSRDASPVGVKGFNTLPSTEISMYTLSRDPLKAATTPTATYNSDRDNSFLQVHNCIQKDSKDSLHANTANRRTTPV
# UniProt P31016, 61-249: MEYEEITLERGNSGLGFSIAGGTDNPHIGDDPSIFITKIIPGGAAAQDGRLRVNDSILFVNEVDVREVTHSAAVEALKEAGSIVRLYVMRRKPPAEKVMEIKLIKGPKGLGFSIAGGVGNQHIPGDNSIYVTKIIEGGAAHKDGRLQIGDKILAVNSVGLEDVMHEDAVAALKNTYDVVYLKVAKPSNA
# pKd: −log10 of the molar value. Several values for one entry are separate records, joined by “and”; a condition that tells them apart may be missing. Equal entries are not always repeated.
# Columns and labels:
# [1] = molecular target: fluorescein-labelled divalent stargazin-derived peptide ligand; assay: fluorescence polarisation; direct titration: 50 nM fluorescein-labelled stargazin ligand (divalent or monovalent) against increasing concentrations of PDZ domains; apparent KD
# [2] = molecular target: Xph20-Stg (Xph20 fused by a 26-amino-acid linker to the last 13 amino acids of stargazin), biotinylated (UniProt Q71RJ2); assay: SPR; single-cycle kinetics; biotinylated Xph clone or Xph-binding motif fusion captured on a CAP sensor chip, tandem PDZ domains as analyte (twofold dilutions); 25 °C; PBS with 500 mM NaCl pH 7.4, 0.1% Tween 20; 30 µL/min; 1:1 Langmuir model; one set of constants for each independent experiment
# [3] = molecular target: Xph15-ETWV (Xph15 fused by a (GGS)12 linker to the ETWV PDZ domain-binding motif), biotinylated; assay: as above
# [4] = molecular target: Xph18-Stg (Xph18 fused by a 26-amino-acid linker to the last 13 amino acids of stargazin), biotinylated (UniProt Q71RJ2); assay: as above
substance,measurement,setting,value
"PSD-95 tandem PDZ domains 1 and 2 (PSD-95-12), from pET-NO (domain or fragment)",pKd,[1],7.36
"PSD-95 tandem PDZ domains (first two PDZ domains of PSD-95, residues 61-249) (from UniProt P31016 61-249) (domain or fragment)",pKd,[2],10.43 and 10.15
same,pKd,[3],9.57 and 9.66
same,pKd,[4],10.70 and 10.32
"PSD-93 tandem PDZ domains 1 and 2 (PSD-93-12), from pET-NO (domain or fragment)",pKd,[1],7.79
